# Test results as given in patent US20120135923A1, “Use of Melanocortins to Treat Dyslipidemia” (IPSEN PHARMA, S.A.S., priority 2009, published 2012).
# Chains of the proteins cited; added tags and fusions are not shown.
# human melanocortin receptor subtype 4 (hMC4-R) (human), P32245, UniProt P32245, whole entry: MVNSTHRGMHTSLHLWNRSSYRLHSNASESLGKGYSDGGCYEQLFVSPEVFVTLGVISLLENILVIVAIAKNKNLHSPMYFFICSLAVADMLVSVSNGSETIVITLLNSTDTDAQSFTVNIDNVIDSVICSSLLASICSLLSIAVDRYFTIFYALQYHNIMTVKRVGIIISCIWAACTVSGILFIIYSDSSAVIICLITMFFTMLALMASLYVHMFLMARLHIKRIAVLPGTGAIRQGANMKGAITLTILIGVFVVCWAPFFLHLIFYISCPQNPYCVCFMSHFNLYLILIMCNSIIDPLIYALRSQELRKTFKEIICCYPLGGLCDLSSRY
# How the values were obtained:
# Experiment in all cases: [125I]-NDP-α-MSH competition, membranes
# [1] = biological target: human melanocortin receptor subtype 1 (hMC1-R) (human), Q01726
# [2] = biological target: human melanocortin receptor subtype 3 (hMC3-R) (human), P41968
# [3] = biological target: human melanocortin receptor subtype 4 (hMC4-R) (human), P32245
Binder,Ki [1],Ki [2],Ki [3]
VCAHFRWC (modifications not checked) [c[Hydantoin(C(O)-(Val-Cys))-D-Ala-His-D-Phe-Arg-Trp-Cys]-NH2],21.2 nM,730 nM,34.5 nM
LCAHFRWC (modifications not checked) [c[Hydantoin(C(O)-(Leu-Cys))-D-Ala-His-D-Phe-Arg-Trp-Cys]-NH2],47.4 nM,1550 nM,27.9 nM
ICAHFRWC (modifications not checked) [c[Hydantoin(C(O)-(Ile-Cys))-D-Ala-His-D-Phe-Arg-Trp-Cys]-NH2],–,1760 nM,–
YRCAHFRWC (modifications not checked) [Ac-Tyr-Arg-c(Cys-D-Ala-His-D-Phe-Arg-Trp-Cys)-NH2],–,21.2 nM,–
